From patent US20210205411A1, “CCR5 INHIBITOR FOR USE IN TREATING CANCER” (ORION BIOTECHNOLOGY SWITZERLAND SÀRL, priority 2018, published 2021)
Read-outs that look alike come from different tables or passages of the source.

By UniProt entry, the sequences of proteins in these tests, tags left out.
UniProt P51681, whole entry: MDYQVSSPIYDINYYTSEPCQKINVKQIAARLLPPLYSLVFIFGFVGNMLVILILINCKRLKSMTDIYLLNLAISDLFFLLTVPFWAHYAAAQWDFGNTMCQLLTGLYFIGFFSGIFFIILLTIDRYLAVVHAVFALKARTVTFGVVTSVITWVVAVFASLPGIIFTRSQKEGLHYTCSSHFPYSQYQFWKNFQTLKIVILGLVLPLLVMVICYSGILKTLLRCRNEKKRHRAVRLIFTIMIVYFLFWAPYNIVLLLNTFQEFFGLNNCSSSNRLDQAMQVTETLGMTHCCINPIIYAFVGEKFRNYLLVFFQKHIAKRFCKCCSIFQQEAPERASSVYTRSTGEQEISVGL

Biological target: human CCR5 (Homo sapiens, UniProt P51681)
Test: CCR5 signaling inhibition, aequorin calcium sensor in CHO cells, agonist human MIP-1β/CCL4
Settings: CHO cells expressing human CCR5, agonist MIP-1β/CCL4, n=2
[1] = read-out: IC50, inhibition of CCR5 signaling (FIG. 1B), FIG. 1B

Row | Substance | IC50 [1] [nM] | IC50 (read-out: IC50, inhibition of CCR5 signaling (FIG. 1A), FIG. 1A) [nM] | IC50 (read-out: IC50, inhibition of CCR5 signaling (FIG. 1C), FIG. 1C) [nM]
1 | cencriviroc | 51 | – | –
2 | maraviroc | 4.3 | 2.7 | 2.6
